Key:
[1] = system: Lys(Dnp)-RGDSVVYGLRIVGG-Lys(Abz)
[2] = system: Lys(Dnp)-ATNATYSPRIVGG-Lys(Abz)
[3] = system: Lys(Dnp)-ATNATLIPRIVGG-Lys(Abz)
[4] = system: Lys(Dnp)-ATNATHEPRIVGG-Lys(Abz)
[5] = system: Lys(Dnp)-ATNATX4X3PRIVGG-Lys(Abz), X4 = F, X3 = D
[6] = system: Lys(Dnp)-ATNATX4X3PRIVGG-Lys(Abz), X4 = T, X3 = N
[7] = system: Lys(Dnp)-ATNATWNPRIVGG-Lys(Abz)
[8] = system: Lys(Dnp)-ATNATSPPRIVGG-Lys(Abz)
[9] = system: Lys(Dnp)-ATNATX4X3PRIVGG-Lys(Abz), X4 = H, X3 = K
[10] = system: Lys(Dnp)-ATNATLTPRIVGG-Lys(Abz)
[11] = system: Lys(Dnp)-ATNATLGPRIVGG-Lys(Abz)
[12] = system: Lys(Dnp)-ATNATLVPRIVGG-Lys(Abz)
[13] = system: Lys(Dnp)-ATNATRQPRIVGG-Lys(Abz)
[14] = system: Lys(Dnp)-NESTTKIKPRIVGG-Lys(Abz)
[15] = system: Lys(Dnp)-YDEDENQSPRIVGG-Lys(Abz)
[16] = system: Lys(Dnp)-ATNATX4X3PRIVGG-Lys(Abz), X4 = N, X3 = V
[17] = system: Lys(Dnp)-ATNATKQPRIVGG-Lys(Abz)
[18] = system: Lys(Dnp)-ATNATKAPRIVGG-Lys(Abz)
[19] = system: Lys(Dnp)-ATNATRWPRIVGG-Lys(Abz)
[20] = system: Lys(Dnp)-ATNATGRPRIVGG-Lys(Abz)
[21] = system: Lys(Dnp)-ATNATEQPRIVGG-Lys(Abz)
[22] = system: Lys(Dnp)-ATNATQEPRIVGG-Lys(Abz)
[23] = system: Lys(Dnp)-ATNATPGPRIVGG-Lys(Abz)
[24] = system: Lys(Dnp)-ATNATREPRIVGG-Lys(Abz)
[25] = system: Lys(Dnp)-ATNATKGPRIVGG-Lys(Abz)
[26] = system: Lys(Dnp)-ATNATELPRIVGG-Lys(Abz)
[27] = system: Lys(Dnp)-ATNATHYPRIVGG-Lys(Abz)
[28] = system: Lys(Dnp)-EDSDRAIEGRIVGG-Lys(Abz)
[29] = system: Lys(Dnp)-ATNATYPPRIVGG-Lys(Abz)
[30] = system: Lys(Dnp)-ATNATYVPRIVGG-Lys(Abz)
[31] = system: Lys(Dnp)-ATNATSFPRIVGG-Lys(Abz)
[32] = system: Lys(Dnp)-ATNATRRPRIVGG-Lys(Abz)
[33] = system: Lys(Dnp)-ATNATPQPRIVGG-Lys(Abz)
[34] = system: Lys(Dnp)-ATNATTLPRIVGG-Lys(Abz)
[35] = system: Lys(Dnp)-ATNATWEPRIVGG-Lys(Abz)
[36] = system: Lys(Dnp)-ATNATX4X3PRIVGG-Lys(Abz), X4 = Y, X3 = D
[37] = system: Lys(Dnp)-ATNATEHPRIVGG-Lys(Abz)
[38] = system: Lys(Dnp)-ATNATQSPRIVGG-Lys(Abz)
[39] = system: Lys(Dnp)-ATNATVKPRIVGG-Lys(Abz)
[40] = system: Lys(Dnp)-ATNATHDPRIVGG-Lys(Abz)
[41] = system: Lys(Dnp)-ATNATSKPRIVGG-Lys(Abz)
[42] = system: Lys(Dnp)-ATNATPNPRIVGG-Lys(Abz)
[43] = system: Lys(Dnp)-ATNATRGPRIVGG-Lys(Abz)
[44] = system: Lys(Dnp)-ATNATQLPRIVGG-Lys(Abz)
[45] = system: Lys(Dnp)-ATNATGLPRIVGG-Lys(Abz)
[46] = system: Lys(Dnp)-ATNATKHPRIVGG-Lys(Abz)

Human plasma purified α-thrombin
FIIa kcat/KM [1]: 410 M⁻¹ s⁻¹
Functional Selectivity (Specificity*FIIa kcat/KM) [1]: 98000
Specificity Ratio (FIIa/FXa) [1]: 239
kcat/KM [1]: 410 M⁻¹ s⁻¹
FIIa kcat/KM [2]: 6500 M⁻¹ s⁻¹
Functional Selectivity (Specificity*FIIa kcat/KM) [2]: 1e+06
kcat/KM [2]: 6500 M⁻¹ s⁻¹
FIIa kcat/KM [3]: 34000 M⁻¹ s⁻¹
Functional Selectivity (Specificity*FIIa kcat/KM) [3]: 2.7e+06
kcat/KM [3]: 34000 M⁻¹ s⁻¹
kcat/KM [4]: 230 M⁻¹ s⁻¹
FIIa kcat/KM [5]: 1300 M⁻¹ s⁻¹
Specificity Ratio (FIIa/FXa) [5]: 21
FIIa kcat/KM [6]: 600 M⁻¹ s⁻¹
Specificity Ratio (FIIa/FXa) [6]: 46
FIIa kcat/KM [7]: 3200 M⁻¹ s⁻¹
Specificity Ratio (FIIa/FXa) [7]: 145
kcat/KM [7]: 3200 M⁻¹ s⁻¹
kcat/KM [8]: 450 M⁻¹ s⁻¹
FIIa kcat/KM [9]: 1200 M⁻¹ s⁻¹
Specificity Ratio (FIIa/FXa) [9]: 43
FIIa kcat/KM [10]: 44000 M⁻¹ s⁻¹
Functional Selectivity (Specificity*FIIa kcat/KM) [10]: 3.6e+06
kcat/KM [10]: 44000 M⁻¹ s⁻¹
FIIa kcat/KM [11]: 8100 M⁻¹ s⁻¹
Specificity Ratio (FIIa/FXa) [11]: 58
kcat/KM [11]: 8100 M⁻¹ s⁻¹
Functional Selectivity (Specificity*FIIa kcat/KM) [12]: 2.4e+06
FIIa kcat/KM [13]: 640 M⁻¹ s⁻¹
Functional Selectivity (Specificity*FIIa kcat/KM) [13]: 91
Specificity Ratio (FIIa/FXa) [13]: 0
kcat/KM [13]: 640 M⁻¹ s⁻¹
FIIa kcat/KM [14]: 20000 M⁻¹ s⁻¹
Functional Selectivity (Specificity*FIIa kcat/KM) [14]: 1.1e+07
Specificity Ratio (FIIa/FXa) [14]: 559
FIIa kcat/KM [15]: 930 M⁻¹ s⁻¹
Functional Selectivity (Specificity*FIIa kcat/KM) [15]: 2700
Specificity Ratio (FIIa/FXa) [15]: 3
kcat/KM [15]: 930 M⁻¹ s⁻¹
FIIa kcat/KM [16]: 550 M⁻¹ s⁻¹
Specificity Ratio (FIIa/FXa) [16]: 32
kcat/KM [17]: 640 M⁻¹ s⁻¹
kcat/KM [18]: 360 M⁻¹ s⁻¹
kcat/KM [19]: 1500 M⁻¹ s⁻¹
kcat/KM [20]: 2700 M⁻¹ s⁻¹
kcat/KM [21]: 110 M⁻¹ s⁻¹
kcat/KM [22]: 1800 M⁻¹ s⁻¹
FIIa kcat/KM [23]: 7200 M⁻¹ s⁻¹
Specificity Ratio (FIIa/FXa) [23]: 71
kcat/KM [23]: 7200 M⁻¹ s⁻¹
kcat/KM [24]: 870 M⁻¹ s⁻¹
kcat/KM [25]: 460 M⁻¹ s⁻¹
kcat/KM [26]: 210 M⁻¹ s⁻¹
kcat/KM [27]: 1300 M⁻¹ s⁻¹
FIIa kcat/KM [28]: 0 M⁻¹ s⁻¹
Functional Selectivity (Specificity*FIIa kcat/KM) [28]: 0
Specificity Ratio (FIIa/FXa) [28]: 0
kcat/KM [29]: 380 M⁻¹ s⁻¹
kcat/KM [30]: 1700 M⁻¹ s⁻¹
kcat/KM [31]: 940 M⁻¹ s⁻¹
kcat/KM [32]: 980 M⁻¹ s⁻¹
FIIa kcat/KM [33]: 26000 M⁻¹ s⁻¹
Functional Selectivity (Specificity*FIIa kcat/KM) [33]: 620000
kcat/KM [33]: 26000 M⁻¹ s⁻¹
kcat/KM [34]: 750 M⁻¹ s⁻¹
FIIa kcat/KM [35]: 2100 M⁻¹ s⁻¹
Specificity Ratio (FIIa/FXa) [35]: 89
kcat/KM [35]: 2100 M⁻¹ s⁻¹
FIIa kcat/KM [36]: 890 M⁻¹ s⁻¹
Specificity Ratio (FIIa/FXa) [36]: 24
kcat/KM [37]: 690 M⁻¹ s⁻¹
kcat/KM [38]: 3100 M⁻¹ s⁻¹
FIIa kcat/KM [39]: 9900 M⁻¹ s⁻¹
Functional Selectivity (Specificity*FIIa kcat/KM) [39]: 2.6e+06
kcat/KM [39]: 9900 M⁻¹ s⁻¹
kcat/KM [40]: 490 M⁻¹ s⁻¹
FIIa kcat/KM [41]: 1100 M⁻¹ s⁻¹
Specificity Ratio (FIIa/FXa) [41]: 85
kcat/KM [41]: 1100 M⁻¹ s⁻¹
kcat/KM [42]: 6700 M⁻¹ s⁻¹
kcat/KM [43]: 880 M⁻¹ s⁻¹
kcat/KM [44]: 3500 M⁻¹ s⁻¹
kcat/KM [45]: 1100 M⁻¹ s⁻¹

Human plasma purified alpha-thrombin
FIIa kcat/KM [4]: 230 M⁻¹ s⁻¹
Specificity Ratio (FIIa/FXa) [4]: 2
FIIa kcat/KM [17]: 640 M⁻¹ s⁻¹
Specificity Ratio (FIIa/FXa) [17]: 6
FIIa kcat/KM [18]: 360 M⁻¹ s⁻¹
Specificity Ratio (FIIa/FXa) [18]: 7
FIIa kcat/KM [19]: 1500 M⁻¹ s⁻¹
Specificity Ratio (FIIa/FXa) [19]: 0
FIIa kcat/KM [21]: 110 M⁻¹ s⁻¹
Specificity Ratio (FIIa/FXa) [21]: 10
FIIa kcat/KM [22]: 1800 M⁻¹ s⁻¹
Specificity Ratio (FIIa/FXa) [22]: 2
FIIa kcat/KM [46]: 900 M⁻¹ s⁻¹
Specificity Ratio (FIIa/FXa) [46]: 16
FIIa kcat/KM [24]: 870 M⁻¹ s⁻¹
Specificity Ratio (FIIa/FXa) [24]: 0
FIIa kcat/KM [25]: 460 M⁻¹ s⁻¹
Specificity Ratio (FIIa/FXa) [25]: 14
FIIa kcat/KM [26]: 210 M⁻¹ s⁻¹
Specificity Ratio (FIIa/FXa) [26]: 2
FIIa kcat/KM [29]: 380 M⁻¹ s⁻¹
Specificity Ratio (FIIa/FXa) [29]: 19
FIIa kcat/KM [32]: 980 M⁻¹ s⁻¹
Specificity Ratio (FIIa/FXa) [32]: 1
FIIa kcat/KM [34]: 750 M⁻¹ s⁻¹
Specificity Ratio (FIIa/FXa) [34]: 6
FIIa kcat/KM [38]: 3100 M⁻¹ s⁻¹
Specificity Ratio (FIIa/FXa) [38]: 3
FIIa kcat/KM [40]: 490 M⁻¹ s⁻¹
Specificity Ratio (FIIa/FXa) [40]: 6
FIIa kcat/KM [43]: 880 M⁻¹ s⁻¹
Specificity Ratio (FIIa/FXa) [43]: 1
FIIa kcat/KM [45]: 1100 M⁻¹ s⁻¹
Specificity Ratio (FIIa/FXa) [45]: 14

From patent publication US20160024487
